As usually defined, the pIC50 is the IC50 on a negative log10 scale, so that one unit is a factor of ten.

pIC50: −log10 of the molar value. Like-named read-outs stand apart in the source and are kept apart here.

Experimental findings from patent publication US8440814B2, “Derivatives of cyclodextrins, process for their preparation and their use in particular for solubilizing pharmacologically active substances” (Centre National de la Recherche Scientifique, priority 2003, dated 2013) are described below.

This assay concerns the target concanavalin A (ConA) lectin (Canavalia ensiformis, UniProt P02866). The assay is classed as binding. As for the experimental part: The affinity of the thioureidocysteaminyl-cyclodextrins of the invention for specific membrane lectins was evaluated in vitro following the ELLA (Enzyme-Linked Lectin Assay) protocol. […] 2002, 102, pp. 555-578. This technique measures the capacity of a soluble mono- or oligosaccharide ligand to inhibit the association between a complementary lectin and another reference ligand fixed to a plastic support microplate.
The IC50 values are inversely proportional to the respective affinities. […]
In order to determine the optimal lectin concentration for inhibition studies, 100 μL of a series of concanavalin A solutions marked with radish peroxidase of 10^−1 to 10^−5 mg·mL^−1 in PBS is added to the cells loaded with mannan, and treated as indicated above. […] The reaction is stopped after 20 minutes by adding 50 μL/cell of sulphuric acid 1 M and the absorbances are measured at 415 nm using an ELISA reader. […]
In a series of experiments ConA marked with radish peroxidase in an appropriate concentration as indicated above (60 μL/cell) is added to the solutions of each compound (60 μL/cell) in PBS sequentially diluted twice, in a Nunclon™ (Delta) microtitre plate which is incubated at 37° C. for 1 hour. […] After 20 minutes, the reaction is stopped (sulphuric acid) and the absorbances are measured. The percentage of inhibition is calculated with the formula: […]

In the case of “heptakis[6-S-[2-N′-[2,2,2-tris[5-(1-thio-α-D-mannopyranosyl)-2-oxapentyl]ethyl]thioureido]ethyl-6-thio]cyclomaltoheptaose [Compound No. 4]”, the pIC50 (read-out: IC50) is 5.30. Turning to “heptakis[6-S-[2-N′-[2,2,2-tris[5-(1-thio-β-D-glucopyranosyl)-2-oxapentyl]ethyl]thioureido]ethyl-6-thio]cyclomaltoheptaose [Compound No. 5]”, the IC50 result is listed as “n.i.^a”.
